Laboratory results: patent publication US8415384B2, “Reducing myocardial reperfusion injury by the combination therapy of protein kinase A activation and B1-adrenergic receptor blockade” (The Board of Regents of the University of Texas System, priority 2008, dated 2013)

Legend:
PKA = assay: myocardial PKA activity after IV infusion in normal rats; type: in vivo, rat; details: 10-min tail vein infusion, peaked at 5-min post-infusion, ventricular tissue
Description: Saline, terbutaline, CGRP or the combination (T+CGRP) was infused for 10-min via rat tail vein. One or 5 min after infusion, the ventricular tissues were harvested for PKA assay (Huang et al., 2007a). T: terbutaline. **: p<0.01, *: p<0.05.
Inventors used rat MI model (30-min ischemia and 4 h reperfusion). Pre-ischemic infusion (10-min) of the β2-AR blocker ICI-118551 (100 μg/kg/min), CGRP-receptor blocker CGRP8-37 (3 ng/kg/min), or their combination to the rats increased IS by 44%, 36%, and 72%, respectively (p<0.01, n=8/group). The β2-AR agonist terbutaline (100 μg/kg/min) and CGRP (3 ng/kg/min) which were co-infused from the last 5-min of ischemia to the first 5-min of reperfusion reduced IS by 74% (p<0.01, n=4/group). […] The effect of combination therapy on myocyte protection was further assessed in a simulated ischemia-reperfusion model of isolated rat ventricular myocytes (2-hr ischemia and 1-hr reperfusion). Compared with saline control, the application of CGRP (1 nmol/L)+terbutaline (100 nmol/L) at 30- and 60-min after ischemia reduced cell death by 11% and 9% (p<0.01) respectively. […] The mechanisms underlying combination therapy were determined by assessing myocardial PKA and PKC activity in normal rats. […] (FIG. 1) In comparison, PKC activity (assessed by PKC translocation) was unchanged in the first 5-min of the drug infusion.

[1] = system: rat myocardial ischemia-reperfusion model; assay: rat myocardial ischemia-reperfusion model (30-min coronary occlusion, 4-hr reperfusion), infarct size; type: in vivo; details: CGRP or terbutaline alone, late ischemia-early reperfusion
Excerpt: N=6 rats/group. NS: not significant; **: p<0.01. […] Yellow zone within the red is the infarcted area. Red zone is the area-at-risk supplied by the occluded left anterior descending coronary artery. Blue zone is non-risk zone supplied by no-occluded right and circumflex coronary arteries. Infarct size is normalized as the ration of yellow-area/red-area. Acute infarction-reperfusion model consists of 30-minute occlusion of the left anterior descending coronary artery followed by four-hour reperfusion. Infarct-size was quantified at the end of four-hour reperfusion. N=6 rats/group. Inventors used rat MI model (30-min ischemia and 4 h reperfusion). […] The effect of combination therapy on myocyte protection was further assessed in a simulated ischemia-reperfusion model of isolated rat ventricular myocytes (2-hr ischemia and 1-hr reperfusion). […] The mechanisms underlying combination therapy were determined by assessing myocardial PKA and PKC activity in normal rats. […] (FIG. 1) In comparison, PKC activity (assessed by PKC translocation) was unchanged in the first 5-min of the drug infusion. […] Arterial blood pressure and heart rate will be monitored continuously throughout the experiments. […] The areas of ischemia and necrosis in each slice are determined by planimetry, converted into percentages of the whole for each slice, and multiplied by the weight of the slice.

[2] = system: isolated rat ventricular myocytes; assay: simulated ischemia-reperfusion of isolated rat ventricular myocytes (2-hr hypoxia, 1-hr re-oxygenation), myocyte death; type: cell-based; details: CGRP or terbutaline alone
Excerpt: FIG. 4 Thirty minutes after the onset of ischemia, administration of milrinone (4.7 μmol/L) to ventricular myocytes reduces myocute death by 11% compared to saline control. The milrinone-induced myocyte protection is abolished in those cells pretreated with the PKA inhibitor Rp-CAMP (100 μmol/L). In vitro myocyte ischemia/reperfusion study consists of 2-hour hypoxia followed by 1-hour re-oxygenation. Hypoxia is created by layering mineral oil over the cells. Re-oxygenation is made by removal of the oil. Myocyte death is quantified at the end of 1-hour reperfusion. (Huang, 2007b). **: p<0.01.
Inventors used rat MI model (30-min ischemia and 4 h reperfusion). Pre-ischemic infusion (10-min) of the β2-AR blocker ICI-118551 (100 μg/kg/min), CGRP-receptor blocker CGRP8-37 (3 ng/kg/min), or their combination to the rats increased IS by 44%, 36%, and 72%, respectively (p<0.01, n=8/group). […] The effect of combination therapy on myocyte protection was further assessed in a simulated ischemia-reperfusion model of isolated rat ventricular myocytes (2-hr ischemia and 1-hr reperfusion). […] The mechanisms underlying combination therapy were determined by assessing myocardial PKA and PKC activity in normal rats. […] (FIG. 1) In comparison, PKC activity (assessed by PKC translocation) was unchanged in the first 5-min of the drug infusion. […]

## calcitonin gene-related peptide (ACDTATCVTHRLAGLLSRSGGVVKNNFVPTNVGSKAF; Calcitonin gene-related peptide 1; UniProt P06881 83-119, looked up) [CGRP]
PKA
  increase of PKA activity: 10%
[1]
  effect on infarct size (IS) of single agent (in words): did not reduce IS
[2]
  myocyte survival benefit of single agent (in words): no myocyte survival benefit
